The values below are quoted from earlier work in US7217431B2, “Controlled agglomeration” (LifeCycle Pharma A/S, priority 2001, dated 2007).

Only a part of the results on these compounds is given; other tests are left out.

For this data set the following is noted: Table 1 Poorly-Soluble Drug Candidates.

`CCC(=O)N(c1ccccc1)C1CCN(CCc2ccccc2)CC1`: the “Solubility In Water” value is on record as “Sparingly”.
